PubChem BioAssay AID463075 (University of Pittsburgh Molecular Library Screening Center, 2010)
This is a selection; strong and weak results do not stand in their true shares. Active and inactive are the calls of the source.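 How the source made its calls: active means activation, meaning protection from cell death, of at least 50% relative to plate controls; inactive means activation below 50%.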

Assay: rescue of FADD-deficient Jurkat cells from TNF-alpha death – single concentration, primary screen (AID 463075);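 further: necroptosis triggered by 40 ng/mL TNF-alpha added together with compound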
Details: Jurkat FADD-/- TNF necroptosis rescue, ATP luminescence, 24 h; at 10 µM; hits give high values; 0 = TNF only, 100 = no-TNF cells

SMILES | activation (protection from cell death)
O=C(COc1ccccc1)OC1CN2CCC1CC2 (configuration not stated) | inactive: 0.842%
COP1(=S)c2c(C)nn(CCC#N)c2N=C(c2ccc(F)cc2)N1C (configuration not stated) | inactive: -0.551%
CCC(C)N(CC(C)C)C(=S)SC(NC(C)=O)C(Cl)(Cl)Cl (configuration not stated) | inactive: -1.64%
CCOC(=O)c1ccc(NC(=O)C(C)(CCl)SC)cc1 (configuration not stated) | inactive: 2.12%
Cc1cc(SC(NC(=O)c2ccccc2)C(Cl)(Cl)Cl)nc(C(C)C)n1 (configuration not stated) | inactive: 0.785%
CCOC(=O)Nc1ccc([As](=O)(O)O)c(O)c1 | inactive: 0.597%
O=[N+]([O-])c1ccc(Nc2ccc(Oc3ccc([N+](=O)[O-])cc3[N+](=O)[O-])cc2)c([N+](=O)[O-])c1 | inactive: -6.58%
Cc1cc(SC(NC=O)C(Cl)(Cl)Cl)ncn1 (configuration not stated) | inactive: -1.56%
O=P(Nc1ccccn1)(c1cccc2ccccc12)c1cccc2ccccc12 | inactive: -2.19%
CCOC(=O)Nc1cccc([As](=O)(O)O)c1 | inactive: 0.855%
Cc1ccc2nc3c(c(C)c2c1)CC(C(Cl)Cl)S3 (configuration not stated) | inactive: 2.18%
Cc1ccc(OP(=O)(Nc2ccc([N+](=O)[O-])cn2)Oc2ccc(C)cc2)cc1 | inactive: -0.123%
O=[As](O)(c1ccc(O)cc1)c1ccccc1O | inactive: 0.805%
C[As](=O)(O)c1cccc(C(=O)O)c1 | inactive: 1.61%
O=[N+]([O-])c1cc([N+](=O)[O-])c(-c2ccn[nH]2)s1 | inactive: -7.87%
CC(C)NC(=O)NP(=O)(Oc1ccccc1)Oc1ccccc1 | inactive: 3.36%
CCN(CC)C(=S)SC(NC=O)C(Cl)(Cl)Cl (configuration not stated) | inactive: -10.2%
CC(C)c1ccc(OP(=O)(Nc2ccccn2)Oc2ccccc2F)cc1 (configuration not stated) | inactive: -2.11%
ClCCSc1nnc(-c2cccnc2)o1 | inactive: -1.61%
COc1cc(I)ccc1[As](=O)(O)O | inactive: -0.397%
COc1ccc2nc(NP(=O)(c3ccccc3)c3ccccc3)sc2c1 | inactive: 2.51%
Cc1cc(=O)[nH]c(N[N+](=O)[O-])n1 | inactive: 1.18%
O=C(OC1CN2CCC1CC2)C12CC3CC(CC(C3)C1)C2 (configuration not stated) | inactive: 1.16%

SMILES | activation (protection from cell death)
Cc1c2c(nc3ccccc13)SC(C(Cl)Cl)C2 (configuration not stated) | inactive: 2.54%
COc1ccc(N/C(=N/P(=O)(N2CCOCC2)N2CCOCC2)N2CCOCC2)cc1 | inactive: 0.921%
Cc1cccc(OCC(=O)OC2CN3CCC2CC3)c1 (configuration not stated) | inactive: 0.928%
O=[As](O)(c1cccc(O)c1)c1cccc(O)c1 | inactive: 0.0347%
O=[As](O)(O)c1cccnc1 | inactive: 1.28%
O=C(OC1CN2CCC1CC2)c1ccc(Cl)cc1 (configuration not stated) | inactive: 2.99%
CCOP(=O)(Nc1cccc2ccccc12)OCC | inactive: -0.687%
COc1cc(C2NCCC3(OCCO3)C2(C)C)cc(OC)c1OC (configuration not stated) | inactive: 1.44%
CCCOP(=S)(Nc1nc(N)cc(=O)[nH]1)OCCC | inactive: 1.59%
Cc1ccc(NCCc2c([N+](=O)[O-])cc([N+](=O)[O-])cc2[N+](=O)[O-])cc1 | inactive: -4.46%
Nc1cccc2c([As](=O)(O)O)cccc12 | inactive: 3.95%
O=C(O)COc1ccc([As](=O)(O)O)cc1[N+](=O)[O-] | inactive: 1.04%
Nc1ccccc1[As](=O)(O)c1ccccc1 | inactive: 1.1%
CS(=O)(=O)c1cc([N+](=O)[O-])c2no[n+]([O-])c2c1 | inactive: -0.989%
O=P(Nc1nccs1)(Oc1ccccc1)Oc1ccccc1 | inactive: 0.0939%
O=P(Nc1nccs1)(c1ccccc1)c1nc2ccccc2s1 (configuration not stated) | inactive: 2.27%
CCOP1(=S)c2c(C)nn(CCC#N)c2N=C(c2ccccc2F)N1C (configuration not stated) | inactive: -1.66%
O=[N+]([O-])c1ccc2c(c1)nnn2O | inactive: -0.0579%
CN(C(=O)Cc1ccccc1)[C@@H]1CC[C@]2(CCCO2)C[C@H]1N1CCCC1 | inactive: 0.79%
CCOP1(=S)c2c(C)nn(CCC#N)c2N=C(c2ccc(F)cc2)N1C (configuration not stated) | inactive: -2.1%
NC(=O)Nc1ccc([As](=O)(O)O)cc1 | inactive: 1.02%
O=C(/C=C/c1ccccc1)OC1CN2CCC1CC2 (configuration not stated) | inactive: 4.64%
CC1CCC(C(C)C)C(OP(=O)(Nc2ccccn2)c2ccccc2)C1 (configuration not stated) | inactive: -1.58%

SMILES | activation (protection from cell death)
Cc1nn(-c2ccccc2)c2c1P(=O)(N1CCOCC1)N(C)C(c1ccccc1)=N2 (configuration not stated) | inactive: -1.59%
Cc1ccc(OCC(=O)OC2CN3CCC2CC3)cc1 (configuration not stated) | inactive: -0.621%
O=[As](O)(c1cccs1)c1cccs1 | inactive: 0.696%
O=P1(Nc2ccc(Br)cn2)COc2ccccc2OC1 | inactive: 1.52%
Nc1cccc([As](=O)(O)c2ccccc2)c1 | inactive: 0.135%
O=P1(Nc2ncccn2)COc2ccccc2OC1 | inactive: 0.741%
CC(C)(C)C(=O)NC(Sc1ncccn1)C(Cl)(Cl)Cl (configuration not stated) | inactive: -1.19%
Clc1n[nH]nc1-c1nn[nH][15n]1 | inactive: 0.353%
CCOP(=O)(Nc1ccc(C)cn1)OCC | inactive: 1.98%
O=P1(Nc2ccccn2)COc2ccccc2OC1 | inactive: -0.454%
CC1(CBr)Cn2c(nc3ccccc3c2=O)S1 (configuration not stated) | inactive: -3.47%
O=[As](O)(c1ccccc1Br)c1ccccc1Br | inactive: 1.88%
CC(C)/C=N\N=C(\N)N[N+](=O)[O-] | inactive: -0.231%
c1nnnn1CCn1cnnn1 | inactive: -2.88%
O=P(Nc1nccs1)(c1ccccc1)c1ccccc1 | inactive: -1.03%
CC(C)C(=O)NC(Sc1ccccc1)C(Cl)(Cl)Cl (configuration not stated) | inactive: 0.837%
C[C@H]1OP(=O)(Oc2ccccc2)[C@H](O)[C@H](O)[C@H]1N=[N+]=[N-] (some centres not stated) | inactive: -1.16%
O=P(Nc1nc2ccccc2s1)(c1ccccc1)c1ccccc1 | inactive: -0.596%
O=P(Nc1ccccn1)(c1ccc(Br)cc1)c1ccc(Br)cc1 | inactive: 1.15%
C(Cc1nn[nH]n1)Cc1nn[nH]n1 | inactive: 1.27%
Nc1ccc([As](=O)(O)c2ccc([N+](=O)[O-])cc2)cc1 | inactive: 4.28%
